The target in the assay is SWI/SNF-related matrix-associated actin-dependent regulator of chromatin subfamily A member 4 (Homo sapiens, UniProt P51532). Put plainly: biochemical.

Amino acid sequences for entries named in this document (tags omitted).
UniProt P51532, whole entry: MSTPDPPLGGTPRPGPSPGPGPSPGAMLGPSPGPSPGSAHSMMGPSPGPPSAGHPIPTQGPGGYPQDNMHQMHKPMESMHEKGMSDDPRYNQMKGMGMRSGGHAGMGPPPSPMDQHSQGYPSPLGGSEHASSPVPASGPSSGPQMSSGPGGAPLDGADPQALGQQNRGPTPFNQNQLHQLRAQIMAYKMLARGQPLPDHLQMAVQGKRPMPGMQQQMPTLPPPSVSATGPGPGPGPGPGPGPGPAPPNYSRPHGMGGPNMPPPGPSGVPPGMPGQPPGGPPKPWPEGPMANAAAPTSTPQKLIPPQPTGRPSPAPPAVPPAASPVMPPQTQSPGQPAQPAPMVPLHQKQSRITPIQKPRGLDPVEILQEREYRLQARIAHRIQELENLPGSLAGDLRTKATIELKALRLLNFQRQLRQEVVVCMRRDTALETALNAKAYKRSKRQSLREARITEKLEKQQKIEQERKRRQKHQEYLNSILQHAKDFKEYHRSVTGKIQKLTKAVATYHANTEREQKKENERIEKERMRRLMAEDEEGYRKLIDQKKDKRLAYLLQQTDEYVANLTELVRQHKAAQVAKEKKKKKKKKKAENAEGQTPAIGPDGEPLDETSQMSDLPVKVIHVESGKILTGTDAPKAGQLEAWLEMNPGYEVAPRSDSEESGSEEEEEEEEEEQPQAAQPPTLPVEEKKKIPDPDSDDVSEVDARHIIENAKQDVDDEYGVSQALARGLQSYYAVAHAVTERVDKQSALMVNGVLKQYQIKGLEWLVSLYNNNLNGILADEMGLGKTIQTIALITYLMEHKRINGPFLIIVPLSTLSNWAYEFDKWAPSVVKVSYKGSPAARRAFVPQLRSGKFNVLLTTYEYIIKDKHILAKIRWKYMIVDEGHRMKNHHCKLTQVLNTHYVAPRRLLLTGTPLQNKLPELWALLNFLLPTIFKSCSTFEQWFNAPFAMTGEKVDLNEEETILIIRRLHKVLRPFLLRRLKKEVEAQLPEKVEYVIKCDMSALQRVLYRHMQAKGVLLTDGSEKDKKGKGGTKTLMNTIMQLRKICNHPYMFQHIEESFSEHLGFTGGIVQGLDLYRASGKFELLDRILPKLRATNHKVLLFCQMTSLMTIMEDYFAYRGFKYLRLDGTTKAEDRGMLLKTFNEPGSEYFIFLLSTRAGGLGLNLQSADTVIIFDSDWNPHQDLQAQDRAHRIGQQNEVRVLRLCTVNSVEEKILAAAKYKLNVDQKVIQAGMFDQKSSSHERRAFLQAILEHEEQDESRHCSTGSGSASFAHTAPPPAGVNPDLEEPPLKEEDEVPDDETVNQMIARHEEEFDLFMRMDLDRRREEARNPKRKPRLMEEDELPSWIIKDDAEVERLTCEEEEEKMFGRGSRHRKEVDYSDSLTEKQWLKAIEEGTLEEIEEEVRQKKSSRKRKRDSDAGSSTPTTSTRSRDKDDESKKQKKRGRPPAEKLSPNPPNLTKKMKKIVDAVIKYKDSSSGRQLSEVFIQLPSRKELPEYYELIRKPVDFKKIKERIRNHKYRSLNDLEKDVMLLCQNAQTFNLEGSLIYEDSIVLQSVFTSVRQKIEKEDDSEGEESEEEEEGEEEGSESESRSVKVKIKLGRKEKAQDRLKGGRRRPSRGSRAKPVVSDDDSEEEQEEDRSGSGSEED

Molecules are shown by their SMILES.

In the case of `CCC(/C=C1\CCn2c1nc(=O)c1c(Cl)cccc12)CC`, the dissociation constant Kd (commonly the free concentration of one partner at which half of the binding sites on the other are occupied at equilibrium, for simple one-to-one binding) was 2.03 µM.
